Measurements taken from US7317014B2, “Bio-active pyrimidine molecules” (Orchid Research Laboratories, Ltd., priority 2002, dated 2008).

Assays:
[1] = system: TNF-α; test: TNF-α production from LPS-stimulated human monocytes (ELISA); assay type: cell-based
[2] = system: Male Wistar rats; test: Rat carrageenan paw edema test; assay type: in vivo; details: oral

[N-]=[N+]=Nc1nc(N=[N+]=[N-])c(-c2ccccc2)c(-c2ccccc2)n1
TNF-α Inhibition (%) ([1]; Conc. 10 μM): 69.43%

[N-]=[N+]=Nc1nc(N=[N+]=[N-])c(-c2ccc(Cl)cc2)c(-c2ccccc2)n1
Rat Paw Edema model % Inhibition (10 mg/kg body weight) [2]: 39.4% | TNF-α Inhibition (%) ([1]; Conc. 1 μM): 26.34%
